From PubChem BioAssay AID630 (Emory University Molecular Libraries Screening Center, 2007)
This is a selection; strong and weak results do not stand in their true shares. Activity calls are given as the source filed them.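 The calls were made as follows: active = compounds that reduce the energy-transfer binding signal between the protein and its labelled peptide by more than half; inactive = the rest.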

Protein sequences, listed by entry. Tags and fused reporters are not part of them.
UniProt P84022, whole entry: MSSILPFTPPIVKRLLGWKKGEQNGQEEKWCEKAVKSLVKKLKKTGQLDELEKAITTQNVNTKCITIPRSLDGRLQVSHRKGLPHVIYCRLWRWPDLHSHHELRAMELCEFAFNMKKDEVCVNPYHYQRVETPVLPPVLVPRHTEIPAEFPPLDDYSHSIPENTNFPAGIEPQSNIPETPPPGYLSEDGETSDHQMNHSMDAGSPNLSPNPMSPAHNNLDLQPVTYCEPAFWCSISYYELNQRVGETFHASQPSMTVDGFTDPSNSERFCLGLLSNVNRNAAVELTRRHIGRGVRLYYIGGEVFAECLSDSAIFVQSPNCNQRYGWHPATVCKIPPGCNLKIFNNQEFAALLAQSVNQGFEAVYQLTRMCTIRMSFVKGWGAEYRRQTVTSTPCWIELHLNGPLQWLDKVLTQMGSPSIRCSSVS

Target: Mothers against decapentaplegic homolog 3 (Homo sapiens) (UniProt P84022)
Assay: Smad3/FoxH1 peptide binding inhibitors, primary screen, biochemical, TR-FRET (AID 630);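 also: 0% = Smad3 plus labelled peptide maximal FRET and 100% = peptide-only background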
Details: TR-FRET Smad3/Dy647-FoxH1 peptide binding, europium anti-His; at 25 µM; stronger effect = higher value

Row | Structure (SMILES) | inhibition
1 | N/C(=N\O)c1c(N)no[n+]1[O-] | inactive: 0.92%
2 | c1ccc(CN2CCC(Nc3ccccc3)CC2)cc1 | inactive: -0.68%
3 | Fc1ccccc1NC1CCN(Cc2ccccc2)CC1 | inactive: -3.43%
4 | CCOc1ncccc1C(=O)NCC1(N2CCOCC2)CCCCC1 | inactive: -6.32%
5 | O=C(O)C1(Nc2ccccc2)CCN(Cc2ccccc2)CC1 | inactive: 9.79%
6 | CCC(CO)(C(=O)OC1CN2CCC1CC2)c1ccccc1 (stereo unspecified) | inactive: 1.76%
7 | O=C(NCC1(N2CCOCC2)CCCCC1)c1cc2ccccc2o1 | inactive: 1.09%
8 | O=C(OC1CN2CCC1CC2)C1c2ccccc2Oc2ccccc21 (stereo unspecified) | inactive: -0.32%
9 | N#CC1(Nc2ccccc2)CCN(CCc2ccccc2)CC1 | inactive: 0.75%
10 | O=C(NCC1(N2CCOCC2)CCCCC1)c1cc(=O)[nH]c2ccccc12 | inactive: 6.71%
11 | NC1CCCCC1.NP(=O)(O)N(CCCl)CCCl | inactive: 14.4%
